According to PubChem BioAssay (NCI):
Values joined by “and” are separate entries in the source; they are usually repeats but may differ in a detail not shown here. Identical values can stand only once. This is a selection; strong and weak results do not stand in their true shares.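 Assay: single dose, 48 h. Readout: percent growth (0 = no net growth; negative = cell death). Active: <10.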 Active and inactive are the calls of the source.

system: MDA-MB-468 breast; assay: NCI-60 one-dose screen, 48 h (100 = growth as untreated, 0 = no growth, -100 = all killed); settings: 10 µM unless noted

Row | SMILES | growth
1 | Cc1ccc(SP(=O)(CCl)N(CCCl)CCCl)cc1 (stereo not given) | inactive: 95.6%
2 | CN(C)P(=O)(N(C)C)n1c(Nc2ccccc2)nnc1-c1ccccc1 | inactive: 96.6%
3 | ClCCN1c2ccccc2Oc2ccccc21 | inactive: 106%
4 | CN(C)C(=O)Oc1ccc(/C=N/NC(N)=S)nc1 | inactive: 87.3%
5 | Nc1ccc(CCCCOc2ccccc2)cc1 | inactive: 48.5%
6 | O=C(Oc1c(Cl)cc(Cl)cc1[N+](=O)[O-])c1cc([N+](=O)[O-])cc([N+](=O)[O-])c1 | inactive: 107%
7 | COc1cc([N+](=O)[O-])c([N+](=O)[O-])cc1OC | inactive: 90.3% and inactive: 112%
8 | CCP(Cl)(Cl)(Cl)CC | inactive: 88.1%
9 | C/C(N)=N/P(=O)(Oc1ccccc1)Oc1ccccc1 | inactive: 100%
10 | CCN(CCCl)Cc1cccc2ccccc12 | inactive: 104%
11 | N#CC(C#N)=C(C#N)N(CCCl)CCCl | inactive: 103%
12 | COc1ccc([As](=O)(O)O)cc1 | inactive: 102%
13 | CC1CCNP(=O)(N(CCCl)CCCl)O1 (stereo not given) | inactive: 107%
14 | O=C1OCCN1P(=O)(Cl)N1CCOC1=O | inactive: 97.8%
15 | CCCCCCC(C)OP(O)OC(C)CCCCCC (stereo not given) | inactive: 97.1%
16 | O=C1CSC(C(Cl)(Cl)Cl)N1c1ccc(Cl)cc1 (stereo not given) | inactive: 94.5%
17 | Nc1cccc([As](=O)(O)c2ccccc2)c1 | inactive: 96.3%
18 | CC[C@H](C)[C@@H]1NC(=O)/C(=C(\C)O)C1=O | inactive: 107%

Row | SMILES | growth
19 | O=C1OP(=O)(Cl)Oc2ccccc21 (stereo not given) | inactive: 103%
20 | Cc1ccccc1CN(CCCl)Cc1ccccc1C | inactive: 100%
21 | COC(=O)c1ccc(N2CCOP2(=O)Cl)cc1O (stereo not given) | inactive: 108%
22 | O=[N+]([O-])c1ccc(Nc2ccc(Oc3ccc([N+](=O)[O-])cc3[N+](=O)[O-])cc2)c([N+](=O)[O-])c1 | inactive: 37.4%
23 | NCCNCCCl | inactive: 102%
24 | CCOP(=O)(NC1CCCCC1)OCC | inactive: 111%
25 | O=[N+]([O-])c1cccc(Oc2ccc([N+](=O)[O-])cc2[N+](=O)[O-])c1 | active: -33.4%
26 | CCN(CCCl)CC1COc2ccccc2O1 (stereo not given) | inactive: 107%
27 | CCN(CC)[P+](c1ccc(OC)cc1OC)(N(CC)CC)N(CC)CC | active: -14.5%
28 | O=[N+]([O-])c1ccc(Oc2cccc(Oc3ccc([N+](=O)[O-])cc3[N+](=O)[O-])c2)c([N+](=O)[O-])c1 | active: 3.69%
29 | Nc1nnc(N)nn1 | inactive: 114%
30 | CC(C)N(CCCl)/N=N/c1nc2nc[nH]c(=O)c2[nH]1 | inactive: 118%
31 | S=P1(S)SC(Nc2ccccc2)CN1c1ccccc1 (stereo not given) | inactive: 110%
32 | COc1cccc([As]=O)c1 (stereo not given) | active: -60.3%
33 | O=c1ccc(Oc2ccc([N+](=O)[O-])cc2[N+](=O)[O-])nn1-c1ccc([N+](=O)[O-])cc1[N+](=O)[O-] | active: -59.6%
34 | Cc1c([N+](=O)[O-])cc(C(=O)c2cc([N+](=O)[O-])cc([N+](=O)[O-])c2)cc1[N+](=O)[O-] | inactive: 101%
35 | O=C(c1ccccc1)C(NCCCl)c1ccccc1 (stereo not given) | inactive: 106%
